According to ChEMBL document CHEMBL1156168, “Eastern extension of azoles as non-nucleoside inhibitors of HIV-1 reverse transcriptase; cyano group alternatives” (Bioorg Med Chem Lett, 2010):

System: MT2
Experiment: Cytotoxicity against human MT2 cells by MTT assay
Assay type: cell-based

Q: N#Cc1ccc(Nc2ncc(Cc3c(F)cccc3F)o2)cc1Cl was tested. Which CC50 did it give?
A: 11 µM
